# Assay results as given in patent US20070270455A1, “INHIBITION OF NF-kB” (priority 2005, published 2007).
# Tests used:
# RCC54 = experiment: Global gene expression profile by microarray hybridization, RCC54; format: cell-based; details: 16 hours
# RCC45 = experiment: Global gene expression profile by microarray hybridization, RCC45; format: cell-based; details: 16 hours
smiles,measurement,setting,value
"Nc1c2ccccc2nc2ccccc12 [9AA, 9-aminoacridine]",Relative expression compared to untreated cells: Activating transcription factor 3,RCC54; 9AA 2 μM,1.07
same,Relative expression compared to untreated cells: Amyloid beta (A4) precursor-like protein 2,RCC54; 9AA 2 μM,1.19
same,Relative expression compared to untreated cells: Annexin A1,RCC54; 9AA 2 μM,1.01
same,Relative expression compared to untreated cells: Apoptotic protease activating factor,RCC54; 9AA 2 μM,0.78
same,Relative expression compared to untreated cells: BCL2 binding component 3 (PUMA),RCC54; 9AA 2 μM,1.03
same,Relative expression compared to untreated cells: BTG family member 2,RCC54; 9AA 2 μM,1.44
same,Relative expression compared to untreated cells: CD44 antigen (homing function and Indian blood group system),RCC54; 9AA 2 μM,0.88
same,"Relative expression compared to untreated cells: Carboxylesterase 2 (intestine, liver)",RCC54; 9AA 2 μM,0.80
same,Relative expression compared to untreated cells: Chemokine (C-C motif) ligand 2,RCC54; 9AA 2 μM,0.64
same,Relative expression compared to untreated cells: Chemokine (C-C motif) ligand 20,RCC54; 9AA 2 μM,0.64
same,"Relative expression compared to untreated cells: Chemokine (C-X-C motif) ligand 1 (melanoma growth stimulating activity, alpha)",RCC54; 9AA 2 μM,0.40
same,Relative expression compared to untreated cells: Chemokine (C-X-C motif) ligand 6 (granulocyte chemotactic protein 2),RCC54; 9AA 2 μM,1.22
same,Relative expression compared to untreated cells: Chemokine-like factor super family 3,RCC54; 9AA 2 μM,0.87
same,Relative expression compared to untreated cells: Cyclin D1 (PRAD1: parathyroid adenomatosis 1),RCC54; 9AA 2 μM,0.77
same,"Relative expression compared to untreated cells: Cyclin-dependent kinase inhibitor 1A (p21, Cip1)",RCC54; 9AA 2 μM,1.25
same,"Relative expression compared to untreated cells: Damage-specific DNA binding protein 2, 48 kDa",RCC54; 9AA 2 μM,0.89
same,"Relative expression compared to untreated cells: Growth arrest and DNA-damage-inducible, beta",RCC54; 9AA 2 μM,1.22
same,Relative expression compared to untreated cells: Heat shock 27 kDa protein 1,RCC54; 9AA 2 μM,0.82
same,Relative expression compared to untreated cells: Interleukin 8,RCC54; 9AA 2 μM,0.62
same,Relative expression compared to untreated cells: KILLER/DR5,RCC54; 9AA 2 μM,1.1
same,Relative expression compared to untreated cells: Leucine-rich repeats and death domain containing,RCC54; 9AA 2 μM,1.12
same,"Relative expression compared to untreated cells: Mdm2, transformed 3T3 cell double minute 2, p53 binding protein (mouse)",RCC54; 9AA 2 μM,0.96
same,"Relative expression compared to untreated cells: Nuclear factor of kappa light polypeptide gene enhancer in B-cells inhibitor, alpha",RCC54; 9AA 2 μM,0.73
same,Relative expression compared to untreated cells: Ribonucleotide reductase M2 B (TP53 inducible),RCC54; 9AA 2 μM,1.11
same,Relative expression compared to untreated cells: Tenascin C (hexabrachion),RCC54; 9AA 2 μM,0.70
same,Relative expression compared to untreated cells: Thiosulfate sulfurtransferase (rhodanese),RCC54; 9AA 2 μM,1.18
same,"Relative expression compared to untreated cells: Tumor necrosis factor receptor superfamily, member 9",RCC54; 9AA 2 μM,0.63
same,"Relative expression compared to untreated cells: Tumor necrosis factor, alpha-induced protein 6",RCC54; 9AA 2 μM,1.26
same,Relative expression compared to untreated cells: Tumor protein p53 inducible nuclear protein 1,RCC54; 9AA 2 μM,1.03
same,Relative expression compared to untreated cells: V-myc myelocytomatosis viral oncogene homolog (avian),RCC54; 9AA 2 μM,1.19
same,Relative expression compared to untreated cells: Vascular cell adhesion molecule 1,RCC54; 9AA 2 μM,0.88
same,Relative expression compared to untreated cells: Activating transcription factor 3,RCC54; 9AA 10 μM,3.56
same,Relative expression compared to untreated cells: Amyloid beta (A4) precursor-like protein 2,RCC54; 9AA 10 μM,1.68
same,Relative expression compared to untreated cells: Annexin A1,RCC54; 9AA 10 μM,3.04
same,Relative expression compared to untreated cells: Apoptotic protease activating factor,RCC54; 9AA 10 μM,1.27
same,Relative expression compared to untreated cells: BCL2 binding component 3 (PUMA),RCC54; 9AA 10 μM,1.57
same,Relative expression compared to untreated cells: BTG family member 2,RCC54; 9AA 10 μM,1.88
same,Relative expression compared to untreated cells: CD44 antigen (homing function and Indian blood group system),RCC54; 9AA 10 μM,0.65
same,"Relative expression compared to untreated cells: Carboxylesterase 2 (intestine, liver)",RCC54; 9AA 10 μM,1.75
same,Relative expression compared to untreated cells: Chemokine (C-C motif) ligand 2,RCC54; 9AA 10 μM,0.26
same,Relative expression compared to untreated cells: Chemokine (C-C motif) ligand 20,RCC54; 9AA 10 μM,0.26
same,"Relative expression compared to untreated cells: Chemokine (C-X-C motif) ligand 1 (melanoma growth stimulating activity, alpha)",RCC54; 9AA 10 μM,0.08
same,Relative expression compared to untreated cells: Chemokine (C-X-C motif) ligand 6 (granulocyte chemotactic protein 2),RCC54; 9AA 10 μM,0.11
same,Relative expression compared to untreated cells: Chemokine-like factor super family 3,RCC54; 9AA 10 μM,0.56
same,Relative expression compared to untreated cells: Cyclin D1 (PRAD1: parathyroid adenomatosis 1),RCC54; 9AA 10 μM,0.29
same,"Relative expression compared to untreated cells: Cyclin-dependent kinase inhibitor 1A (p21, Cip1)",RCC54; 9AA 10 μM,3.80
same,"Relative expression compared to untreated cells: Damage-specific DNA binding protein 2, 48 kDa",RCC54; 9AA 10 μM,1.38
same,"Relative expression compared to untreated cells: Growth arrest and DNA-damage-inducible, beta",RCC54; 9AA 10 μM,2.78
same,Relative expression compared to untreated cells: Heat shock 27 kDa protein 1,RCC54; 9AA 10 μM,1.30
same,Relative expression compared to untreated cells: Interleukin 8,RCC54; 9AA 10 μM,0.09
same,Relative expression compared to untreated cells: KILLER/DR5,RCC54; 9AA 10 μM,1.9
same,Relative expression compared to untreated cells: Leucine-rich repeats and death domain containing,RCC54; 9AA 10 μM,2.12
same,"Relative expression compared to untreated cells: Mdm2, transformed 3T3 cell double minute 2, p53 binding protein (mouse)",RCC54; 9AA 10 μM,2.86
same,"Relative expression compared to untreated cells: Nuclear factor of kappa light polypeptide gene enhancer in B-cells inhibitor, alpha",RCC54; 9AA 10 μM,0.54
same,Relative expression compared to untreated cells: Ribonucleotide reductase M2 B (TP53 inducible),RCC54; 9AA 10 μM,3.53
same,Relative expression compared to untreated cells: Tenascin C (hexabrachion),RCC54; 9AA 10 μM,0.59
same,Relative expression compared to untreated cells: Thiosulfate sulfurtransferase (rhodanese),RCC54; 9AA 10 μM,3.59
same,"Relative expression compared to untreated cells: Tumor necrosis factor receptor superfamily, member 9",RCC54; 9AA 10 μM,0.85
same,"Relative expression compared to untreated cells: Tumor necrosis factor, alpha-induced protein 6",RCC54; 9AA 10 μM,0.48
same,Relative expression compared to untreated cells: Tumor protein p53 inducible nuclear protein 1,RCC54; 9AA 10 μM,1.61
same,Relative expression compared to untreated cells: V-myc myelocytomatosis viral oncogene homolog (avian),RCC54; 9AA 10 μM,0.40
same,Relative expression compared to untreated cells: Vascular cell adhesion molecule 1,RCC54; 9AA 10 μM,0.53
same,Relative expression compared to untreated cells: Activating transcription factor 3,RCC45; 9AA 2 μM,0.91
same,Relative expression compared to untreated cells: Amyloid beta (A4) precursor-like protein 2,RCC45; 9AA 2 μM,0.97
same,Relative expression compared to untreated cells: Annexin A1,RCC45; 9AA 2 μM,1.13
same,Relative expression compared to untreated cells: Apoptotic protease activating factor,RCC45; 9AA 2 μM,0.85
same,Relative expression compared to untreated cells: BCL2 binding component 3 (PUMA),RCC45; 9AA 2 μM,0.78
same,Relative expression compared to untreated cells: BTG family member 2,RCC45; 9AA 2 μM,0.9
same,Relative expression compared to untreated cells: CD44 antigen (homing function and Indian blood group system),RCC45; 9AA 2 μM,1.32
same,"Relative expression compared to untreated cells: Carboxylesterase 2 (intestine, liver)",RCC45; 9AA 2 μM,1.04
same,Relative expression compared to untreated cells: Chemokine (C-C motif) ligand 2,RCC45; 9AA 2 μM,1.06
same,Relative expression compared to untreated cells: Chemokine (C-C motif) ligand 20,RCC45; 9AA 2 μM,1.06
same,"Relative expression compared to untreated cells: Chemokine (C-X-C motif) ligand 1 (melanoma growth stimulating activity, alpha)",RCC45; 9AA 2 μM,0.93
same,Relative expression compared to untreated cells: Chemokine (C-X-C motif) ligand 6 (granulocyte chemotactic protein 2),RCC45; 9AA 2 μM,0.94
same,Relative expression compared to untreated cells: Chemokine-like factor super family 3,RCC45; 9AA 2 μM,0.85
same,Relative expression compared to untreated cells: Cyclin D1 (PRAD1: parathyroid adenomatosis 1),RCC45; 9AA 2 μM,1.34
same,"Relative expression compared to untreated cells: Cyclin-dependent kinase inhibitor 1A (p21, Cip1)",RCC45; 9AA 2 μM,1.33
same,"Relative expression compared to untreated cells: Damage-specific DNA binding protein 2, 48 kDa",RCC45; 9AA 2 μM,1.00
same,"Relative expression compared to untreated cells: Growth arrest and DNA-damage-inducible, beta",RCC45; 9AA 2 μM,0.92
same,Relative expression compared to untreated cells: Heat shock 27 kDa protein 1,RCC45; 9AA 2 μM,1.13
same,Relative expression compared to untreated cells: Interleukin 8,RCC45; 9AA 2 μM,1.37
same,Relative expression compared to untreated cells: KILLER/DR5,RCC45; 9AA 2 μM,1.1
same,Relative expression compared to untreated cells: Leucine-rich repeats and death domain containing,RCC45; 9AA 2 μM,1.10
same,"Relative expression compared to untreated cells: Mdm2, transformed 3T3 cell double minute 2, p53 binding protein (mouse)",RCC45; 9AA 2 μM,0.91
same,"Relative expression compared to untreated cells: Nuclear factor of kappa light polypeptide gene enhancer in B-cells inhibitor, alpha",RCC45; 9AA 2 μM,0.96
same,Relative expression compared to untreated cells: Ribonucleotide reductase M2 B (TP53 inducible),RCC45; 9AA 2 μM,1.08
same,Relative expression compared to untreated cells: Tenascin C (hexabrachion),RCC45; 9AA 2 μM,1.37
same,Relative expression compared to untreated cells: Thiosulfate sulfurtransferase (rhodanese),RCC45; 9AA 2 μM,1.13
same,"Relative expression compared to untreated cells: Tumor necrosis factor receptor superfamily, member 9",RCC45; 9AA 2 μM,0.65
same,"Relative expression compared to untreated cells: Tumor necrosis factor, alpha-induced protein 6",RCC45; 9AA 2 μM,0.73
same,Relative expression compared to untreated cells: Tumor protein p53 inducible nuclear protein 1,RCC45; 9AA 2 μM,1.09
same,Relative expression compared to untreated cells: V-myc myelocytomatosis viral oncogene homolog (avian),RCC45; 9AA 2 μM,0.88
same,Relative expression compared to untreated cells: Vascular cell adhesion molecule 1,RCC45; 9AA 2 μM,1.18
same,Relative expression compared to untreated cells: Activating transcription factor 3,RCC45; 9AA 10 μM,2.99
same,Relative expression compared to untreated cells: Amyloid beta (A4) precursor-like protein 2,RCC45; 9AA 10 μM,1.90
same,Relative expression compared to untreated cells: Annexin A1,RCC45; 9AA 10 μM,2.02
same,Relative expression compared to untreated cells: Apoptotic protease activating factor,RCC45; 9AA 10 μM,1.72
same,Relative expression compared to untreated cells: BCL2 binding component 3 (PUMA),RCC45; 9AA 10 μM,1.79
same,Relative expression compared to untreated cells: BTG family member 2,RCC45; 9AA 10 μM,2.4
same,Relative expression compared to untreated cells: CD44 antigen (homing function and Indian blood group system),RCC45; 9AA 10 μM,0.41
same,"Relative expression compared to untreated cells: Carboxylesterase 2 (intestine, liver)",RCC45; 9AA 10 μM,3.17
same,Relative expression compared to untreated cells: Chemokine (C-C motif) ligand 2,RCC45; 9AA 10 μM,0.35
same,Relative expression compared to untreated cells: Chemokine (C-C motif) ligand 20,RCC45; 9AA 10 μM,0.35
same,"Relative expression compared to untreated cells: Chemokine (C-X-C motif) ligand 1 (melanoma growth stimulating activity, alpha)",RCC45; 9AA 10 μM,0.15
same,Relative expression compared to untreated cells: Chemokine (C-X-C motif) ligand 6 (granulocyte chemotactic protein 2),RCC45; 9AA 10 μM,0.22
same,Relative expression compared to untreated cells: Chemokine-like factor super family 3,RCC45; 9AA 10 μM,0.59
same,Relative expression compared to untreated cells: Cyclin D1 (PRAD1: parathyroid adenomatosis 1),RCC45; 9AA 10 μM,0.69
same,"Relative expression compared to untreated cells: Cyclin-dependent kinase inhibitor 1A (p21, Cip1)",RCC45; 9AA 10 μM,4.62
same,"Relative expression compared to untreated cells: Damage-specific DNA binding protein 2, 48 kDa",RCC45; 9AA 10 μM,1.79
same,"Relative expression compared to untreated cells: Growth arrest and DNA-damage-inducible, beta",RCC45; 9AA 10 μM,2.66
same,Relative expression compared to untreated cells: Heat shock 27 kDa protein 1,RCC45; 9AA 10 μM,1.71
same,Relative expression compared to untreated cells: Interleukin 8,RCC45; 9AA 10 μM,0.30
same,Relative expression compared to untreated cells: KILLER/DR5,RCC45; 9AA 10 μM,2.4
same,Relative expression compared to untreated cells: Leucine-rich repeats and death domain containing,RCC45; 9AA 10 μM,1.64
same,"Relative expression compared to untreated cells: Mdm2, transformed 3T3 cell double minute 2, p53 binding protein (mouse)",RCC45; 9AA 10 μM,2.30
same,"Relative expression compared to untreated cells: Nuclear factor of kappa light polypeptide gene enhancer in B-cells inhibitor, alpha",RCC45; 9AA 10 μM,0.55
same,Relative expression compared to untreated cells: Ribonucleotide reductase M2 B (TP53 inducible),RCC45; 9AA 10 μM,3.33
same,Relative expression compared to untreated cells: Tenascin C (hexabrachion),RCC45; 9AA 10 μM,0.58
same,Relative expression compared to untreated cells: Thiosulfate sulfurtransferase (rhodanese),RCC45; 9AA 10 μM,2.79
same,"Relative expression compared to untreated cells: Tumor necrosis factor receptor superfamily, member 9",RCC45; 9AA 10 μM,0.91
same,"Relative expression compared to untreated cells: Tumor necrosis factor, alpha-induced protein 6",RCC45; 9AA 10 μM,0.27
same,Relative expression compared to untreated cells: Tumor protein p53 inducible nuclear protein 1,RCC45; 9AA 10 μM,1.86
same,Relative expression compared to untreated cells: V-myc myelocytomatosis viral oncogene homolog (avian),RCC45; 9AA 10 μM,0.48
same,Relative expression compared to untreated cells: Vascular cell adhesion molecule 1,RCC45; 9AA 10 μM,0.51
